{
  "source": "paper PMC3893826",
  "about": "(Journal of medicinal chemistry, 2010)",
  "test_system": "U87MG xenografts",
  "experiment": "Anti-tumor efficacy, U87MG xenograft model",
  "assay_type": "in vivo, mouse",
  "details": "dose of 20 mg/kg",
  "data": [
    {"smiles": "CCC(=O)N1CCN(c2ccc(-n3c(=O)ccc4cnc5ccc(-c6cnc7ccccc7c6)cc5c43)cc2C(F)(F)F)CC1", "note": "[Compound 26, 1-(4-(4-propionylpiperazin-1-yl)-3-(trifluoromethyl)phenyl)-9-(quinolin-3-yl)benzo[h][1,6]naphthyridin-2(1H)-one]", "values": [
      {"measurement": "efficacy in U87MG xenograft model", "value": "efficacious"}
    ]}
  ]
}
